Data reported in US10689415B2, “Conjugates of RGD peptides and (bacterio)chlorophyll photosensitizers” (YEDA RESEARCH AND DEVELOPMENT COMPANY LTD., priority 2006, dated 2020).

How the values were obtained:
[1] = test system: large MDA-MB-231-RFP tumors; assay: Biodistribution and pharmacokinetics (fluorescence of tissue extracts) in MDA-MB-231-RFP tumor-bearing mice; type: in vivo, CD-1 nude female mice
Experimental: Mammary fat pads (left, bottom nipple) of female mice were inoculated with harvested MDA-MB-231-RFP human breast cancer cells (4×10^6 in […] saline). Tumors were classified as ‘small’ (˜100 mm^3) at one to two weeks from time of cell injection, or ‘large’ after three to four weeks (necrotic tumors, 250 to 500 mm^3). To avoid tumor burden, mice were sacrificed (cervical dislocation) when tumor size reached 10% of body weight or at 90 days post-implantation. External caliper measurements, length (L), width (W) and depth (D) were used to calculate in vivo tumor volume according to the formula: V=L/2·W/2·D/2·π·4/3.
Anesthetized mice were i.v. injected (tail vein) with the different photosensitizer (pigment) conjugates (control group: untreated). The mice were sacrificed at indicated time points and samples of the indicated organs and tissues (blood, tumor, intestine, liver, spleen, kidneys, testies, heart, lung, brain, skin, muscle and fat) were placed in pre-weighted vials and immediately frozen and stored at −20° in the dark until analyzed. Three methods were used for sample preparation: (1) Each sample was thawed and homogenized in DDW (1:10 w/v). Aliquots of the homogenate (500 μl) were lyophilized in Eppendorf test tubes. Then, 60 μl of HNO3 (70%, TraceSelect, Fluka) were added to each dry sample, incubated for 1 h at 90° C. and diluted with DDW to 3 ml. (2) Each sample was diluted (1:2 w/v) in HNO3 (70%, TraceSelect, Fluka). The samples were sonicated for 30 min in boiled water, and left for at least 48 h at room temperature. (3) Applied for assessment of non-metalated conjugates. Each sample was thawed and homogenized in methanol (100 mg tissue/ml) and extracted the next morning by centrifugation (13,000×g, five minutes) at room temperature. In methods (1) and (2), 140 μl from each sample was added to 3.36 ml DDW to give total volume of 3.5 ml and incubated for 1 h at 90° C. Pd concentrations were determined by ICP-MS. According to method (3), the supernatants were diluted in methanol by a factor of two and the drug concentration was determined by fluorescence measurements (Varian-Cary Eclipse spectrofluorimeter, Palo Alto, Calif., USA) at 750 nm (peak values). Drug concentrations were interpolated from a fluorescence calibration curve, based on predetermined drug concentrations using absorption spectroscopy.
Levels of conjugate 13 in blood, liver, kidney and large MDAMB-231-RFP tumors were assessed at the indicated time points after i.v. injection of 15 mg/kg (n=27; FIG. 38A).
In order to determine whether the RGD moiety is imperative for the selective uptake of conjugate 13 by the tumor, its time-dependent accumulation within MDA-MB-231-RFP tumors was compared with that of the RGD-free compound 25.

[2] = target: HSA (Homo sapiens, UniProt P02768); assay: Association constants of photosensitizers to HSA (spectroscopic titration); type: binding
Text: Association constants of photosensitizers, conjugated or non-conjugated to an RGD-containing peptide, were deduced from spectroscopic measurements of the ratio between the photosensitizer and HSA for different concentrations of HSA using both factor analysis, as previously described (Brandis et al., 2005) and by monitoring changes in the near infrared (NIR) absorption of the photosensitizers during titration with HSA. Briefly, all photosensitizers (PhSs) present broad NIR absorption with reduced intensity in SA-free aqueous solutions. Upon addition of SA, they form 1:1 complexes with the added protein (PhS/SA) with strong and narrow NIR absorption bands. The narrow-band absorption is proportional to the (PhS/SA) concentration enabling calculation of the association constant Ka through the following equation:
[formula] where [SA]0 is the analytical concentration of the added SA and [PhS/SA] is the concentration of the photosensitizer complexed with SA calculated from the spectral changes. In Vitro Studies
Therefore, the association constants of compounds 8 and 25 and conjugates 13 and 24 were determined. […] In fact, those for the RGDconjugates were four to six fold lower than the association constants of their RGD-free analogues, ruling out stronger SA association as the sole basis for RGD-conjugates retention in the tumor.

[3] = 48 to 72 hours post-administration

3^1-oxo-15-methoxycarbonylmethyl-Rhodobacteriochlorin 13^1-(2-sulfoethyl)amide-17^3-(cycloRGDfK)amide potassium salt [Conjugate 13]
t1/2 of hepatic clearance ([1]; 15 mg/kg i.v.): about four hours
levels in the tumor relative to blood [1, 3]: about two orders of magnitude higher
levels in the tumor relative to kidney, liver, intestines, lung and skin [1, 3]: approximately two-fold higher
levels in the tumor relative to spleen, heart, brain, fat and muscle [1, 3]: about 10 fold
association constants Ka(HSA) [2]: 0.12±0.04
